Columns and labels:
[1] = molecular target: phosphodiesterase protein GdpP (GdpP84–659) (Bacillus subtilis, UniProt P37484); assay: HPLC phosphodiesterase assay, degradation rates of c-di-AMP and analogs; type: biochemical; conditions: hydrolysis rate relative to c-di-AMP (fold slower)
[2] = tested on: wild-type ydaO riboswitch; assay: gel-shift; type: binding, Bacillus subtilis; conditions: loss in affinity for wild-type ydaO relative to c-di-AMP

Sequences of proteins named here, by UniProt entry; tags and fusion partners are left off. Residues count along the entry.
UniProt P37484, 84-659: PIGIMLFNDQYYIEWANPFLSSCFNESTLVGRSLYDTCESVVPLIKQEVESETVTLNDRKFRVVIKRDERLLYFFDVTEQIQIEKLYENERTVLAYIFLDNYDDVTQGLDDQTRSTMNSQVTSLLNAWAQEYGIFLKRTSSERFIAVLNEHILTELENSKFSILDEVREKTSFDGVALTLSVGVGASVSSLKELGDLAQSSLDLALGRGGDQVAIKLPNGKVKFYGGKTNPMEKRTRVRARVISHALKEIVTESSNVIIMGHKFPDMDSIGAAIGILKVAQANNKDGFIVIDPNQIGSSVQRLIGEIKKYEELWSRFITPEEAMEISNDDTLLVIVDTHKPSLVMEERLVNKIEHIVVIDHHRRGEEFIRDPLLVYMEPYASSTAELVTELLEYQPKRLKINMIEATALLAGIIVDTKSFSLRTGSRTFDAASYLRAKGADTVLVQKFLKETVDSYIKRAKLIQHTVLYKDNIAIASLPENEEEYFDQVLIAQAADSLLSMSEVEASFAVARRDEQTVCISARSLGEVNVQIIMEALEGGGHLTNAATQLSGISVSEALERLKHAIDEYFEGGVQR

Structure (SMILES): Nc1nc2c(ncn2[C@@H]2O[C@@H]3COP(=O)(O)O[C@H]4[C@@H](O)[C@H](n5cnc6c(=O)[nH]c(N)nc65)O[C@@H]4COP(=O)(O)O[C@H]3[C@H]2O)c(=O)[nH]1 [c-di-GMP, (3’-5’)-cyclic diguanosine monophosphate, reference compound]
- Fold Change [1]: 5.1
- Fold Loss [2]: > 2.0 × 10^7

Source: paper PMC4755858 (Biochemistry, 2016)
